SMILES strings stand for the structures. The list shows a part of the results, in another mix than the full data. Some results for these compounds are left out of this collection, so the calls shown say nothing about other tests. The source made the active and inactive calls. Calls follow the shape of the dose curve; as a rule, active = well fitted inhibition curve with a large enough effect; inconclusive = small, poorly fitted or top-dose-only effect, or effect the other way; inactive = flat fitted curve, though single readings scatter.

The chains behind the UniProt entries cited, without tags or fusion partners.
UniProt O15648, whole entry: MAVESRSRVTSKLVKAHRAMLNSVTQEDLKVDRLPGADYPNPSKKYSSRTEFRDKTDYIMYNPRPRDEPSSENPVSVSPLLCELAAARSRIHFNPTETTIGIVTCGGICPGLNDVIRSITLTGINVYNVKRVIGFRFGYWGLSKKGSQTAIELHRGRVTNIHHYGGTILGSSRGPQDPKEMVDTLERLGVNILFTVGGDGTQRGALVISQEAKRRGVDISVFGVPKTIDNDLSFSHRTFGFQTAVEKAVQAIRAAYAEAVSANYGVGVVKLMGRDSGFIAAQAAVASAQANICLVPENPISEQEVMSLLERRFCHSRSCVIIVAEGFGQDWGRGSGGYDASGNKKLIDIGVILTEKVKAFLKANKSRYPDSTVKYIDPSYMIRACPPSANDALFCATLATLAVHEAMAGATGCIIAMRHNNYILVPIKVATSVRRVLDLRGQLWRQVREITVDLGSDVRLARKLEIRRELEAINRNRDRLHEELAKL

For this test, the target named is ATP-dependent 6-phosphofructokinase (Trypanosoma brucei brucei) (UniProt O15648). Nature of the test: qHTS Assay to Find Inhibitors of T. brucei phosphofructokinase. Also: nearly all actives have a fitted effect of over 60% in size. Particulars: T. brucei PFK, ADP-Glo luminescence; at 57.5 µM (top of the series). The text has this: NIH Molecular Libraries Probe Production Network [MLPCN] NIH Chemical Genomics Center [NCGC] Grant: 1 R03 MH092153-01 PI Name: Malcolm Walkinshaw, University of Edinburgh NCGC Assay Overview: Various species of the protozoan family Trypanosomatidae are responsible for a range of serious human diseases in tropical and subtropical areas of the world. […] Many of the disorders caused by trypanosomatids are fatal if left untreated, but most currently used drugs are inefficient and toxic. […] Oxidative metabolism involving the mitochondrial tricarboxylic acid cycle and oxidative phosphorylation are repressed in these parasites, and recent RNA interference (RNAi) experiments have shown that even partial depletion of certain individual glycolytic enzymes can lead to the death of cultured parasites. One such glycolytic enzyme, phosphofructokinase (PFK), catalyzes the formation of fructose-1,6-bisphosphate (F1,6BP) and ADP from fructose-6-phosphate (F6P) and ATP, and in many metabolic circumstances makes an important contribution to the control of flux through the glycolytic pathway. As a specific glycolytic target, PFK is particularly attractive as it catalyzes the first irreversible step in glycolysis, and structural and kinetic studies have shown very substantial and essential differences from corresponding host enzymes, allowing for the discovery of parasite-selective inhibitors. The goal of this screen is to find small-molecule inhibitors of T. brucei PFK using a biochemical assay that measures PFK activity as a function of ADP production. A luminescence-based assay for T. brucei PFK activity has been developed which uses luciferase to detect production of ADP. Traditional luciferase-based nucleotide detection reagents rely on ATP production as a direct substrate for the luciferase reaction; however, PFK catalyzes the transfer of a phosphate from ATP to F6P, resulting in the net depletion of ATP. To directly measure the ADP product of the PFK reaction, we used the ADP-Glo detection kit (Promega), which utilizes two separate reactions to 1) deplete all remaining uncatalyzed ATP and 2) convert all remaining ADP to ATP, which is then detected through a traditional luciferase-coupled reaction. Compounds were screened as a concentration-titration series that ranged from 57 uM to 0.7 nM.
NCGC Assay Protocol Summary: NCGC Assay Protocol Summary: Substrate buffer was dispensed into white, solid 1536-well plates at 3uL/well in 0.1M triethanolamine (TEA) buffer, pH 8.0, containing final concentrations of 5 mM MgCl2, 0.01% Tween20, 0.5 mM fructose-6-phosphate (F6P) and 0.1mM ATP. Then, 23 nL of compounds or DMSO were delivered to each well using a pin tool. One uL T. brucei PFK (0.1M TEA, 0.01% Tween20, 0.1% bovine serum albumin (BSA) and 1.25nM PFK, final concentrations) was then dispensed, and plates were incubated at room temperature for 45 min. The luminescent detection reagent, ADP-Glo (Promega), was then added in two steps: the first reagent, ADP-Glo (which converts remaining uncatalyzed ATP), was added at 2.5uL/well and incubated for ten minutes at room temperature, and the second component, Kinase Detection reagent (which converts ADP to ATP as a substrate for luciferase-based luminescence), was added immediately after at 5uL/well, followed by one final ten minute room temperature incubation. The plates were measured on a ViewLux plate reader for luminescent signal using a clear filter with a one second exposure. The %Activity was determined from the corrected luminescence values. As no specific T. brucei PFK inhibitors have been identified in the literature, 1x (1.25nM) and 0x PFK enzyme controls (untreated) were included to normalize %Activity of identified inhibitors; 0x enzyme values corresponded to 100%Activity (full inhibition), while 1x PFK enzyme values were used to normalize 0%Activity (no inhibition). Concentration-response curves were fitted to the signals arising from the resulting luminescence. […]
In general terms: Quantitative high-throughput screening tests each substance at several concentrations.
`CN(C)c1cccc(C(=O)NCC2(N(C)C)CCCCC2)c1`: the activity, negative = inhibition was inactive: 1.51%.

For the molecule `CC(C)Oc1ccc(C(=O)NCC2(N(C)C)CCCCC2)cc1`, the activity, negative = inhibition is inactive: -11%.

Turning to `COc1ccc(Br)c(C(=O)NCC2(N3CCCCC3)CCCCC2)c1`, the activity, negative = inhibition was inactive: 0%.

Turning to `O=C(OC1CN2CCC1CC2)C(CO)(c1ccccc1)c1ccccc1` (centres undefined), the activity, negative = inhibition was inactive: -1.58%.

For the molecule `O=C(NCC1(N2CCCCC2)CCCCC1)c1cccc(Cl)c1`, the activity, negative = inhibition was inactive: -2.18%.

Take `COc1cccc(C(=O)NCC2(N3CCCCC3)CCCCC2)c1`: the activity, negative = inhibition was inactive: 1.21%.

As to `COc1ccc(Cl)cc1C(=O)NCC1(N(C)C)CCCCC1`, the activity, negative = inhibition was inactive: 1.14%.

For the molecule `COc1cc(C(=O)NCC2(N(C)C)CCCCC2)c([N+](=O)[O-])cc1OC`, the activity, negative = inhibition is inactive: 0.557%.

Take `CN(C)C1(CNC(=O)c2ccc(Br)cc2)CCCCC1`: the activity, negative = inhibition is inactive: 7.71%.

Take `Cc1cc(C(=O)NCC2(N3CCCCC3)CCCCC2)ccc1[N+](=O)[O-]`: the activity, negative = inhibition is inactive: -2.4%.

Take `CCN1CCCC(OC(=O)C2(O)c3ccccc3C=Cc3ccccc32)C1` (centres undefined): the activity, negative = inhibition was inactive: -0.156%.

On to `O=C(NCC1(N2CCCCC2)CCCCC1)c1cccc(Br)c1`, for which the activity, negative = inhibition is inactive: -0.241%.

`COc1ccc(C(=O)NCC2(N(C)C)CCCCC2)cc1`: the activity, negative = inhibition is inactive: -1.02%.

Take `C=CCN1CCN(CCOC(=O)C(O)(c2ccccc2)c2ccccc2)CC1`: the activity, negative = inhibition is inactive: -0.0567%.

As to `O=C(NCC1(N2CCCCC2)CCCCC1)c1cc(F)c(F)cc1Cl`, the activity, negative = inhibition is inactive: 0.774%.

In the case of `Cc1ccccc1C(=O)NCC1(N2CCCCC2)CCCCC1`, the activity, negative = inhibition is inactive: -1.18%.

On to `CN(C)C1CCCC1OC(=O)C(O)(c1ccccc1)c1ccccc1` (centres undefined), for which the activity, negative = inhibition was inactive: 8.36%.

Take `CN(C)c1ccc(C(=O)NCC2(N(C)C)CCCCC2)cc1`: the activity, negative = inhibition is inactive: -5.88%.

Consider `Cc1ccc(C(=O)NCC2(N3CCCCC3)CCCCC2)cc1`, for which the activity, negative = inhibition is inactive: 0.394%.

Turning to `CC(C)N1C(=O)CC2(CCN(CCOC(=O)C(O)(c3ccccc3)c3ccccc3)CC2)C1=O`, the activity, negative = inhibition is inactive: -4.85%.

`CCN(CC)CC(C)C(C)OC(=O)C(O)(c1ccccc1)c1ccccc1` (centres undefined): the activity, negative = inhibition was inactive: -2.32%.

As to `COc1cc(SC)ccc1C(=O)NCC1(N(C)C)CCCCC1`, the activity, negative = inhibition was inactive: -3.47%.

With `CN1[C@@H]2CC[C@H]1CC(OC(=O)C(O)(c1ccccc1)c1ccccc1)C2` (some centres undefined), the activity, negative = inhibition is inactive: 0%.

As for `O=C(NCC1(N2CCCCC2)CCCCC1)c1cc([N+](=O)[O-])ccc1Cl`, the activity, negative = inhibition is inactive: 7.29%.

For the origin of these results see PubChem BioAssay AID485367 (National Center for Advancing Translational Sciences (NCATS), 2010).
